Measurements reported in patent US20240254179A1, “Targeting Nuclear Speckles and DNA Speckle Association” (THE TRUSTEES OF THE UNIVERSITY OF PENNSYLVANIA, priority 2023, published 2024).

Sequences of proteins named here, by UniProt entry; tags and fusion partners are left off. A change or cut given only in a name is not applied to a line headed by its entry.
UniProt Q99814: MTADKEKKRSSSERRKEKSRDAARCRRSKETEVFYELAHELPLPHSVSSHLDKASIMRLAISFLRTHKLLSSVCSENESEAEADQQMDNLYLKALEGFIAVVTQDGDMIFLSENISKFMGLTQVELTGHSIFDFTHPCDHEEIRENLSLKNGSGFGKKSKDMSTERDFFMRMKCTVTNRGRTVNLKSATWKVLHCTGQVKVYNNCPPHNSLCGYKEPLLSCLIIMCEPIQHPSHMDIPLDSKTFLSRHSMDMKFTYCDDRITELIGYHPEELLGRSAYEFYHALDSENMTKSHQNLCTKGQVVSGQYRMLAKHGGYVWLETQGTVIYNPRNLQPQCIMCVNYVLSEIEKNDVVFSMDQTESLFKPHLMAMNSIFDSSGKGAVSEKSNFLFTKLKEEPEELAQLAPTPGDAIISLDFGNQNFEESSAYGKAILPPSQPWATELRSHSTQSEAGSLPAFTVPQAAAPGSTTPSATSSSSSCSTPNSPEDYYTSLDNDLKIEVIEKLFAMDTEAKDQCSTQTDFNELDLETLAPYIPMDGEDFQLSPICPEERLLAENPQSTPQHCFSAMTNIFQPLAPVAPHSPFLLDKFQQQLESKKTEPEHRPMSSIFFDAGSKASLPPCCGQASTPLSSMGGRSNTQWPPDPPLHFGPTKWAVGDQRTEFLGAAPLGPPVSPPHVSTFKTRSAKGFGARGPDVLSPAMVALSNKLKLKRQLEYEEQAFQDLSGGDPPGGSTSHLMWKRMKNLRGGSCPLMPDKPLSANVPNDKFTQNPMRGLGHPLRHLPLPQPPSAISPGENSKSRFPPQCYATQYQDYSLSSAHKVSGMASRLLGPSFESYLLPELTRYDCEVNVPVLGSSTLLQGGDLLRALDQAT

How the values were obtained:
[1] = target: T1, HIF2A (Homo sapiens, UniProt Q99814); settings: 786O cells, PT2399 versus DMSO vehicle control
[2] = target: T1, HIF2A
[3] = target: T1, HIF2A; settings: 786O cells, PT2399 versus DMSO
[4] = target: T1, HIF2A; settings: 786O cells, DMSO control or PT2399 treatment
[5] = target: T1, HIF2A; settings: A498 cells, PT2399

## N#Cc1cc(F)cc(Oc2ccc(S(=O)(=O)C(F)F)c3c2CC(F)(F)[C@H]3O)c1 [PT2399]
[1]
  number of HIF2A-dependent genes that decreased their SON TSA-seq speckle signal: 175
[2]; 786O cells and A498 cells compared
  number of decreased genes upon PT2399 treatment (RNA-seq): comparable number of decreased genes in each cell type
[2]; 786O cells, DMSO control versus PT2399 time course
  gene expression change upon HIF2A inhibition (RNA-seq): the majority of genes are decreasing with HIF2A inhibition
[3]
  L-shaped relationship between distance to speckle and nascent RNA within transcription sites: abolishes this L-shaped distribution
  distance of HIF2A-responsive genes CCND1 and DDIT4 to speckles: CCND1 and DDIT4 become more distal to speckles
[4]
  HIF2A-specific genomic binding (ChIP-seq): a loss of HIF2A-specific binding
[5]
  speckle association of HIF2A-responsive genes: does not alter speckle association of HIF2A-responsive genes
